Reference: published antibiotic growth screens (doi:10.1038/s41589-023-01349-8)
The other results are listed elsewhere or left out.

test system: A. baumannii ATCC 17978; test: relative growth (fraction of control); higher = less inhibition; details: 50 µM

`C[C@@H]1CN([C@H](C)CO)C(=O)c2cc(C#CC3(O)CCCC3)cnc2O[C@@H]1CN(C)S(=O)(=O)c1ccc(F)cc1` was tested. Which relative growth did it give?
Its relative growth is 1.01.

How did the relative growth turn out when `C[C@@H](Sc1nc(N)cc(N)n1)C(=O)O` was run?
Its relative growth is 0.85.

How did the relative growth turn out when `O=C(OC[C@]12O[C@H]1[C@@H](O)[C@@H]1C=CO[C@@H](O[C@@H]3O[C@H](CO)[C@@H](O)[C@H](O)[C@H]3O)[C@@H]12)c1ccccc1` was run?
The relative growth was 1.2.

For `C=CC[C@H](CC(=O)N[C@@H](CO)Cc1ccccc1)C(=O)N[C@H](COC(=O)[C@@H](CC=C)Cc1ccc(F)cc1)Cc1c[nH]c2ccccc12`, which relative growth is on record?
Its relative growth is 0.948.

For `Nc1ncnc2c1ncn2[C@H]1O[C@H](COP(=O)(O)O)[C@@H](O)[C@H]1O`, which relative growth is on record?
Its relative growth is 1.

How did the relative growth turn out when `O=C(NC1CC1)[C@@H]1c2ccccc2C(=O)N(Cc2cc(F)cc(C(F)(F)F)c2)[C@H]1c1ccc(CO)cc1` was run?
Its relative growth is 0.849.

How did the relative growth turn out when `N[C@H]1CCCC[C@@H]1N1C(=O)CSC1=O` was run?
The relative growth was 0.998.

For `COc1ccc(CNC(=O)C[C@H]2C[C@@H]3c4cc(NS(=O)(=O)c5ccc(F)cc5)ccc4O[C@@H]3[C@@H](CO)O2)cc1`, which relative growth is on record?
Its relative growth is 0.982.

Which relative growth does the source give for `CNC(=O)Nc1ccc(C(=O)NC)cc1` here?
Its relative growth is 0.911.

For `CCOc1nc2c(ncn2C)c(=O)n1C`, which relative growth is on record?
The relative growth was 1.13.

With `CC(C)(C)OC(=O)C[C@@H]1CC=CC[C@@H](CC(=O)N[C@@H](CO)Cc2ccccc2)C(=O)N[C@@H](C(C)(C)C)COC1=O` as the compound, how does the relative growth read?
Its relative growth is 0.902.

How did the relative growth turn out when `CO/N=C(/C(=O)N[C@@H]1C(=O)N2C(C(=O)O)=C(CSC(=O)c3ccco3)CS[C@H]12)c1csc(N)n1.Cl` was run?
The relative growth was 0.147.

How did the relative growth turn out when `COc1cc2c(cc1OC)CN(C(=O)[C@@H]1[C@H]3C(=O)O[C@H](c4ccccc4)[C@H](c4ccccc4)N3[C@H](c3ccc(OCCO)cc3)[C@@]13C(=O)Nc1ccc(C#CC4(O)CCCCCC4)cc13)CC2` was run?
Its relative growth is 1.18.

For `CC(=O)OCC(=O)[C@H]1CCC2C3CCC4=CC(=O)CC[C@]4(C)C3CC[C@@]21C` (stereo not given in full), which relative growth is on record?
The relative growth was 1.3.

For `CN1CCN(C(=O)C[C@H]2CC[C@@H]3[C@H](COC[C@H](O)CN3S(=O)(=O)c3cccc(F)c3)O2)CC1`, which relative growth is on record?
The relative growth was 1.05.

Which relative growth does the source give for `CC1=CC2C(CC1=O)C2(C)C` (stereo not given) here?
The relative growth was 0.994.

For `COc1ccc(C(=O)c2ccccc2O)c(O)c1`, which relative growth is on record?
The relative growth was 0.825.

How did the relative growth turn out when `C[C@@H]1CN([C@@H](C)CO)C(=O)c2cccc(NC(=O)Nc3cccc4ccccc34)c2O[C@H]1CN(C)S(=O)(=O)c1ccc(OC(F)(F)F)cc1` was run?
The relative growth was 0.937.

With `Cn1cnc(S(=O)(=O)N2C[C@H](O)COC[C@H]3O[C@H](CC(=O)N4CCN(c5ccccc5)CC4)CC[C@@H]32)c1` as the compound, how does the relative growth read?
The relative growth was 0.91.

Which relative growth does the source give for `CN1CCN(C(=O)C[C@H]2C=C[C@H](NC(=O)c3ccc4c(c3)OCO4)[C@H](CO)O2)CC1` here?
Its relative growth is 1.02.

`COC(=O)C[C@H]1CC[C@H]2[C@@H](COC[C@@H](O)CN2S(=O)(=O)c2cn(C)cn2)O1` was tested. Which relative growth did it give?
Its relative growth is 1.09.

For `C=CCOC(=O)[C@H]1[C@@H]2C(=O)O[C@@H](c3ccccc3)[C@@H](c3ccccc3)N2[C@@H](c2ccc(OCCOC(=O)[C@@H]3C[C@@H]4C(=O)N[C@@H](Cc5ccccc5)C(=O)N4[C@@H]3c3ccc(O)cc3)cc2)[C@]12C(=O)Nc1ccccc12`, which relative growth is on record?
Its relative growth is 1.32.

For `CC(=O)O[C@@H]1[C@@H](OC(C)=O)[C@H](C)O[C@@H](O[C@H]2[C@H](OC/C=C(\C)CC/C=C(\C)CC/C=C(\C)CCC=C(C)C)O[C@H](CO[C@@H]3O[C@@H](C)[C@H](O)[C@@H](O)[C@H]3O)[C@@H](O)[C@@H]2O)[C@@H]1OC(C)=O`, which relative growth is on record?
Its relative growth is 0.668.

`C[C@@H]1CN([C@H](C)CO)S(=O)(=O)c2ccc(C#CCN(C)C)cc2O[C@@H]1CN(C)S(C)(=O)=O` was tested. Which relative growth did it give?
The relative growth was 0.945.

With `COc1ccc(COC(=O)[C@H]2[C@H]3C(=O)N(Cc4ccc5c(c4)OCO5)C[C@]34C=C[C@]2(Br)O4)cc1` as the compound, how does the relative growth read?
The relative growth was 0.804.

With `C[C@H](CO)N1C[C@H](C)[C@H](CN(C)C(=O)NC2CCCCC2)Oc2cc(-c3cccnc3)ccc2S1(=O)=O` as the compound, how does the relative growth read?
The relative growth was 0.962.

For `O=C(C[C@@H]1CC[C@H]2[C@@H](COC[C@H](O)CN2C(=O)C2CC2)O1)NCc1ccncc1`, which relative growth is on record?
Its relative growth is 0.855.

For `NNC(=O)c1ccc(CN2CCCCC2)o1`, which relative growth is on record?
Its relative growth is 1.02.

`CN(C)CCNC(=O)c1ccccn1` was tested. Which relative growth did it give?
The relative growth was 0.974.

With `OCc1ccccn1` as the compound, how does the relative growth read?
Its relative growth is 1.

With `COCC(=O)Nc1ccc2c(c1)C(=O)N(C)[C@@H]1CC[C@H](CC(=O)N3CCc4ccccc4C3)O[C@H]1CO2` as the compound, how does the relative growth read?
Its relative growth is 0.893.

`O=C(Nc1ccno1)NN1CCOCC1` was tested. Which relative growth did it give?
The relative growth was 0.93.

For `O=C(Cn1c(=O)n(-c2ccccc2)c(=O)n1CC(=O)N1CCOCC1)N1CCOCC1`, which relative growth is on record?
Its relative growth is 1.01.

Which relative growth does the source give for `CN1CCC[C@H]1CO` here?
The relative growth was 0.87.

For `O=C(C[C@H]1C[C@@H]2c3cc(NC(=O)C4CCOCC4)ccc3O[C@@H]2[C@H](CO)O1)NCc1cc(F)ccc1F`, which relative growth is on record?
Its relative growth is 0.961.

Which relative growth does the source give for `C=CCOC(=O)[C@H]1[C@@H]2C(=O)O[C@@H](c3ccccc3)[C@@H](c3ccccc3)N2[C@@H](c2ccc(OCCOC(=O)[C@H]3C[C@H]4C(=O)N[C@@H](Cc5ccccc5)C(=O)N4[C@H]3c3ccc(O)cc3)cc2)[C@]12C(=O)Nc1ccc(I)cc12` here?
Its relative growth is 1.38.

For `O=C(C[C@H]1CC[C@@H]2[C@H](COC[C@@H](O)CN2C(=O)Nc2cccc(Cl)c2)O1)NCc1ccccc1F`, which relative growth is on record?
The relative growth was 0.791.

Which relative growth does the source give for `O=C(C[C@H]1C[C@H]2c3cc(NC(=O)C4CCOCC4)ccc3O[C@H]2[C@@H](CO)O1)NCc1cc(F)ccc1F` here?
The relative growth was 0.904.

Which relative growth does the source give for `NCCc1cc2nc(-c3ccncc3)ccn2n1` here?
Its relative growth is 0.994.

Which relative growth does the source give for `C[C@H]1CCc2c(sc(/N=C/C=C/c3ccccc3)c2C#N)C1` here?
The relative growth was 1.23.

`CC(C)Cc1ccc(C(C)C(=O)O)cc1` (stereo not given) was tested. Which relative growth did it give?
Its relative growth is 0.984.

With `CCSC(=O)NC1CCCCC1` as the compound, how does the relative growth read?
Its relative growth is 1.01.

With `O=c1c(O)c(-c2ccc(O)c(O)c2)oc2cc(O)cc(O)c12` as the compound, how does the relative growth read?
The relative growth was 1.02.

For `CCS(=O)(=O)NCC[C@@H]1CC[C@@H](NC(=O)Cc2ccccn2)[C@@H](CO)O1`, which relative growth is on record?
Its relative growth is 0.882.

With `C[C@@H]1CN([C@H](C)CO)S(=O)(=O)c2ccc(C#Cc3ccncc3)cc2O[C@@H]1CN(C)C(=O)c1ccncc1` as the compound, how does the relative growth read?
The relative growth was 1.09.

Which relative growth does the source give for `Cc1cc2cc(CN)ccc2[nH]1` here?
Its relative growth is 0.946.

`Cc1cnc(C(=O)O)c[n+]1[O-]` was tested. Which relative growth did it give?
Its relative growth is 0.938.

With `CC(=O)Nc1cccc(O)c1` as the compound, how does the relative growth read?
Its relative growth is 0.868.

`COc1cccc(-c2cn(CC[C@H]3CC[C@@H](NC(=O)CN(C)C)[C@@H](CO)O3)nn2)c1` was tested. Which relative growth did it give?
Its relative growth is 0.847.

With `C[C@@H]1CN([C@@H](C)CO)S(=O)(=O)c2ccc(C#C[C@@H](C)O)cc2O[C@@H]1CN(C)C` as the compound, how does the relative growth read?
Its relative growth is 1.07.
